In BindingDB's records for US10793556 one finds Ki data, which are given here for one compound.

By UniProt entry, the sequences of proteins in these tests, tags left out.
UniProt P35372, whole entry: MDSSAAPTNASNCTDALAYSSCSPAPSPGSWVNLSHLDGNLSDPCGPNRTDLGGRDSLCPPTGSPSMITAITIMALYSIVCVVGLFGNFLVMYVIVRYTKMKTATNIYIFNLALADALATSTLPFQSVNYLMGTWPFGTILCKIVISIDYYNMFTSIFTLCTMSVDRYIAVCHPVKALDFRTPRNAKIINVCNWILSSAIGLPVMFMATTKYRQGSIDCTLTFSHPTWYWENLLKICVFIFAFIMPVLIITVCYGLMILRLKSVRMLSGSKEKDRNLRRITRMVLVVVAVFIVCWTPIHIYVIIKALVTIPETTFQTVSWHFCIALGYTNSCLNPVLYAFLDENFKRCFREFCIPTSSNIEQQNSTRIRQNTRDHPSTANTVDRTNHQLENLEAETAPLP
UniProt P41146, whole entry: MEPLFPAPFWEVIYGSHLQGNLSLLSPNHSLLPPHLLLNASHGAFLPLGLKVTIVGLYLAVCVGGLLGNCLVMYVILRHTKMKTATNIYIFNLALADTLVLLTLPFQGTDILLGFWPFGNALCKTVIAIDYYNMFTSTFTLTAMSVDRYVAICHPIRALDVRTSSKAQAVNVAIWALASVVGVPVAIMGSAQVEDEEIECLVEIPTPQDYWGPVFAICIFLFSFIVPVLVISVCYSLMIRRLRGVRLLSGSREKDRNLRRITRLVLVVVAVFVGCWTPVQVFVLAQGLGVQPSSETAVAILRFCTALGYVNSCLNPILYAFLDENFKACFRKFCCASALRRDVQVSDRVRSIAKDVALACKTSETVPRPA

For one test, the target named is Mu-type opioid receptor (Homo sapiens, UniProt P35372). The experiment in a line: ASSAY_NAME: Receptor Binding Assay DESCRIPTION: The hMOP receptor binding assay was performed as homogeneous SPA-assay (scintillation proximity assay) using the assay buffer 50 mM TRIS-HCl (pH 7.4) supplemented with […] bovine serum albumin (Sigma-Aldrich Co. St. Louis. Mo.). The final assay volume (250 ul/well) included 1 nM of [N-allyl-2.3-3H]naloxone as ligand (PerkinElmer Life Sciences.

The target of another test is Nociceptin receptor (Homo sapiens, UniProt P41146). The experiment in a line: ASSAY_NAME: Receptor Binding Assay DESCRIPTION: The hNOP receptor binding assay was performed as homogeneous SPA-assay (scintillation proximity assay) using the assay buffer 50 mM TRIS-HCl. 10 mM MgCl2. 1 mM EDTA (pH 7.4). The final assay volume (250 μl/well) included 0.5 nM of [leucyl-3H]nociceptin as ligand (PerkinElmer Life Sciences. Inc. Boston. Mass. USA). and either test compound in dil.

Regarding `CN(C)[C@]1(c2cccc(F)c2)CC[C@]2(CC1)CN(CC1(O)CCS(=O)(=O)CC1)C(=O)N2CC1(O)CCC1`, the Ki (usually a dissociation constant, usually derived from enzyme kinetics or from competition with a known ligand) turned out to be 4360 nM at Mu-type opioid receptor and 114 nM on Nociceptin receptor.
